Measured values reported in patent US8129388B2, “Therapeutic agents useful for treating pain” (Purde Pharma L.P., priority 2003, dated 2012).

Sequences of proteins named here, by UniProt entry; tags and fusion partners are left off.
UniProt Q8NER1, whole entry: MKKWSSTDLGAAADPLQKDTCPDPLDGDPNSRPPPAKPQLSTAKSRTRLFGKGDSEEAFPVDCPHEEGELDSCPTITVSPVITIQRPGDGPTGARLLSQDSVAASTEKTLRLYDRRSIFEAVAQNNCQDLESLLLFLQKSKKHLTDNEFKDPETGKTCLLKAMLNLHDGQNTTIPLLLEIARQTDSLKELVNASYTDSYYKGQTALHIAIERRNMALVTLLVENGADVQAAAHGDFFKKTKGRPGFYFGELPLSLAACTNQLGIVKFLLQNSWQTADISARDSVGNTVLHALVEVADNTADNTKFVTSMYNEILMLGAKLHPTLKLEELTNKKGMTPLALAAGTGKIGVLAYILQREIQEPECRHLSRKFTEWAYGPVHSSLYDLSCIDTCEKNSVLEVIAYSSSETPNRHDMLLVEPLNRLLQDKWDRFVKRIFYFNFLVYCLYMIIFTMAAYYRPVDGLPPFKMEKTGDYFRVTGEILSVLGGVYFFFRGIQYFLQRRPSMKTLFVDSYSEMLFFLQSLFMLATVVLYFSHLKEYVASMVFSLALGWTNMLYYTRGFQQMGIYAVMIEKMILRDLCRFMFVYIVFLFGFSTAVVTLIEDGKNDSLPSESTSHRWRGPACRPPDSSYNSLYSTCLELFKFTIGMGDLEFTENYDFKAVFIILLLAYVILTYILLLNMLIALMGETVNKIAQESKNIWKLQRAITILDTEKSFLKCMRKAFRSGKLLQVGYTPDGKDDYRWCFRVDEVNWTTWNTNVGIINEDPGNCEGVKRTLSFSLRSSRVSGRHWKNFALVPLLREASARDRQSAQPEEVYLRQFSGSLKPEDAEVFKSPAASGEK

How the values were obtained:
human VR1 [1] = target: T1, human VR1 (Homo sapiens, UniProt Q8NER1); test: Capsaicin-based assay of VR1 inhibition (Fluo-4 calcium, FLIPR); assay type: cell-based
T1 construct: expressed in transfected cells
Method: (§1) Human VR1 Cloning: Human spinal cord RNA (commercially available from Clontech, Palo Alto, Calif.) was used. Reverse transcription was conducted on 1.0 μg total RNA using Thermoscript Reverse Transcriptase (commercially available from Invitrogen) and oligo dT primers as detailed in its product description. Reverse transcription reactions were incubated at 55° C. for 1 h, heat-inactivated at 85° C. for 5 min, and RNase H-treated at 37° C. for 20 min.
(§2) Human VR1 cDNA sequence was obtained by comparison of the human genomic sequence, prior to annotation, to the published rat sequence. Intron sequences were removed and flanking exonic sequences were joined to generate the hypothetical human cDNA. Primers flanking the coding region of human VR1 were designed as follows: forward primer, […]; and reverse primer, […]. […]
(§3) Generation of Inducible Cell Lines: Unless noted otherwise, cell culture reagents were purchased from Life Technologies of Rockville, Md. […] On the day of assay, cells were loaded with Fluo-4 (a calcium-sensitive dye that is commercially available from Molecular Probes) and CAP-mediated calcium influx was measured using a FLIPR as described below. […]

human VR1 [2] = target: T1, human VR1; test: pH-based assay of VR1 inhibition (Fluo-4 calcium, FLIPR); assay type: cell-based
Method: as §1, §2, §3

SMILES: Cc1cccnc1-c1ccc(C(=O)Nc2ccc(C(C)(C)C)cc2)cc1 [Compound E35]
- IC50 (human VR1 [1]): 128 ± 26 nM
- IC50 (human VR1 [2]): 11.2 ± 5.5 nM
